Earlier results in US20100105761A1, “TREATMENT OF PAIN THROUGH EXPRESSION OF OPIOID RECEPTORS” (priority 2006, published 2010).

Chains of the proteins cited; added tags and fusions are not shown. Lines headed by an entry give the natural chain unless they say otherwise; changes in a name come on top.
UniProt P41145: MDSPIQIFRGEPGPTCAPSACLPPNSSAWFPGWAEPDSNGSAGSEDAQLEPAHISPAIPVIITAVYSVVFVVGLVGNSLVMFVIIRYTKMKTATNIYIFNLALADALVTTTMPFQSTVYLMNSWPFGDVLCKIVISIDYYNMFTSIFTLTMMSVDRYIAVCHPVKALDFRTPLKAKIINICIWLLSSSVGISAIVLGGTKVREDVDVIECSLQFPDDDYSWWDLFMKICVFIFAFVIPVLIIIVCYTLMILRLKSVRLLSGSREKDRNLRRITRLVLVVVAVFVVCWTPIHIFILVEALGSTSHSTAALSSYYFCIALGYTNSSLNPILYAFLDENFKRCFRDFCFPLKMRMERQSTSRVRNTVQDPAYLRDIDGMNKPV

Columns and labels:
δ-receptor = δ-receptor (Homo sapiens, UniProt P41143)
κ-receptor = κ-receptor (Homo sapiens, UniProt P41145)

Compound	affinity / selectivity for δ-receptors (in words) (δ-receptor)	antinociception in mice of the CXBX strain (μ receptor)	antinociception in MOR-1 knockout mice, exon-1 disrupted (μ receptor)	affinity for κ-receptors (in words) (κ-receptor)
CC(C)[C@H](NC(=O)[C@H](CCC(=O)O)NC(=O)[C@H](Cc1ccccc1)NC(=O)[C@@H](C)NC(=O)[C@@H](N)Cc1ccc(O)cc1)C(=O)N[C@H](C(=O)NCC(=O)O)C(C)C [deltorphin, Tyr-D-Met-Phe-His-Leu-Met-Asp-NH2]	highly selective	–	–	–
CN1CC[C@]23c4c5ccc(O)c4O[C@H]2[C@@H](O)C=C[C@H]3[C@H]1C5 [morphine]	–	poor antinociceptive agent	not	–
Nociceptin/orphanin FQ	–	–	–	little affinity
Tyr-D-Ala-Phe-Xaa-Val-Val-Gly-NH2, where Xaa is Asp or Glu respectively [[D-Ala2]-deltorphin I]	highly selective	–	–	–
morphine-6b-glucuronide	–	potently antinociceptive	still produce antinociception	–
